Biological target: T1, human cannabinoid receptor 2 (CB2) (Homo sapiens, UniProt P34972)
T1 construct: expressed in transfected cells; host or cells: 293T-CB2 cells, stably transfected with CB2 cDNA and transiently transfected with CRE-luc
Experiment: CB2 agonistic activity, CRE-luc reporter in 293T-CB2-CRE-luc cells stimulated with Forskolin
Type: cell-based
Settings: 15 min pre-treatment, then 10 μM Forskolin for six hours, expressed as % of Forskolin stimulation, FIG. 1

Chains of the proteins cited; added tags and fusions are not shown.
UniProt P34972, whole entry: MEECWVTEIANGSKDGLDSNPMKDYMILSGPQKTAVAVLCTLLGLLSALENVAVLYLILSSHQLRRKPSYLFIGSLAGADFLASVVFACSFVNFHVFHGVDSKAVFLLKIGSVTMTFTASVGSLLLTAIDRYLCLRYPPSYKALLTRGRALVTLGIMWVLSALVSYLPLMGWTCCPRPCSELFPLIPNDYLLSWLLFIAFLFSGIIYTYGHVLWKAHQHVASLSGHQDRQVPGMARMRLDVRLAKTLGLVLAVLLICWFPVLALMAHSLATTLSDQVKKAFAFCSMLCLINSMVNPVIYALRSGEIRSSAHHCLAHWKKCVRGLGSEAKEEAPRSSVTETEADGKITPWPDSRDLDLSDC

`Cc1c(C(=O)c2cccc3ccccc23)c2cccc3c2n1[C@H](CN1CCOCC1)CO3` [WIN-55,212-2] was tested, and the “CB2 agonist activity as inhibition of Forskolin-induced CRE-Luc activity” value was “acts as a CB2 agonist and partially antagonizes the effect of Forskolin”.

— patent US12396942B2, “Seed extract of Annona cherimola” (CLR-Chemisches Laboratorium Dr. Kurt Richter GmbH, priority 2019, dated 2025)
